This note sets out measurements from patent publication US20220018849A1, “SERINE HYDROLASE PROFILING ASSAY IN BIOTHERAPEUTICS” (Merck Sharp & Dohme Corp., priority 2020, published 2022).

Molecules are shown by their SMILES.

The assay deals with serine hydrolases. In words: Activity-based chemical proteomics approach (fluorophosphonate probe enrichment, LC-MS/MS). The note with it: HCCF sample from mAb1; compared with DMSO or control probe. As to the method: Harvest cell culture fluid (HCCF) and products from the first ion-exchange column (IEXP)) in downstream purification were used for activity-based proteomics testing. HCCF from Chinese hamster ovary (CHO) cells from fed-batch production of mAbs was diluted with 50 mM Tris (pH 8) to 2 mg/mL. IEXP samples were diluted to 10 mg/mL. Fluorophosphonate (FP)-containing probes were dissolved in dirnethyl sulfoxide (DMSO) to make 0.1 mM stock solution. For each HCCF or IEXP sample (500 μL), 20 μL of chemical probes or control DMSO was added to make a final mix concentration of 2 μM. All samples were incubated at room temperature for 2 hours with constant mixing on a rotator. After reaction, to each sample was added 1000 μL of ice-cold methanol/acetone (50:50) on ice for 30 minutes to remove free probes. The precipitated proteins were collected via centrifugation at 20,000 g for 15 minutes at 4° C. The pellet was washed with 1 mL of ice-cold methanol/acetone solution once and dried under N2 gas. The remaining pellet was re-dissolved in 1 ml of sample suspension buffer (2M Urea, 1% SDS, 50 mM Tris, pH 8). For each sample, 60 μL of Pierce™ agarose beads were added before incubation at room temperature for 1 hour while constantly mixing on a rotator. […]

In the case of `CCOP(=O)(F)CCCCCCCCCC(=O)NCCCCCNC(=O)CCCC[C@@H]1SC[C@@H]2NC(=O)N[C@@H]21` (stereo partly shown), the “number of known lipases and esterases combined significantly enriched” value is “More than 10”.
